Experimental data as given in patent US9302989B2 (priority 2010, dated 2016).

Amino acid sequences for entries named in this document (tags omitted). A change or cut given only in a name is not applied to a line headed by its entry.
UniProt P43490: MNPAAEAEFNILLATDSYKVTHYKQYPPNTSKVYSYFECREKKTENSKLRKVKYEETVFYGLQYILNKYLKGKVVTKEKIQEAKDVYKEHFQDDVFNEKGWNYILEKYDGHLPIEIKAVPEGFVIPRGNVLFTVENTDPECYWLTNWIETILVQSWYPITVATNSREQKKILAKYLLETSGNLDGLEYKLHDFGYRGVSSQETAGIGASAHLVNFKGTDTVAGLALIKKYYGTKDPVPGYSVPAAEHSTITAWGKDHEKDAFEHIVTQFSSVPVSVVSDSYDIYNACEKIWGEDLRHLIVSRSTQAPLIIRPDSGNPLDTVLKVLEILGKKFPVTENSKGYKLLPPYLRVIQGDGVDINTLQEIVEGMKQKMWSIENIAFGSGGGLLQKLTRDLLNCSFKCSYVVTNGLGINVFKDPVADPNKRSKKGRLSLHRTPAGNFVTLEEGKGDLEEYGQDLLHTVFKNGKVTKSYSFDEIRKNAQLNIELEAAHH

Biological target: NAMPT (Homo sapiens (Human), UniProt P43490)
Conditions: read-out: TR-FRET Binding IC50 (μM) probe 1

CC(C)[C@@H](CO)NC(=O)c1ccc(NC(=O)N2Cc3ccccc3C2)cc1 [Example 174, N-(4-{[(2S)-1-hydroxy-3-methylbutan-2-yl]carbamoyl}phenyl)-1,3-dihydro-2H-isoindole-2-carboxamide]
IC50: 0.12 µM

O=C(Nc1ccc(C(=O)N(CCO)Cc2ccccc2)cc1)N1Cc2ccccc2C1 [Example 175, N-{4-[benzyl(2-hydroxyethyl)carbamoyl]phenyl}-1,3-dihydro-2H-isoindole-2-carboxamide]
IC50: 0.12 µM

N#Cc1ccc(NC(=O)c2ccc(NC(=O)N3Cc4ccccc4C3)cc2)cc1 [Example 176, N-{4-[(4-cyanophenyl)carbamoyl]phenyl}-1,3-dihydro-2H-isoindole-2-carboxamide]
IC50: 0.12 µM

O=C(NCCc1ccc(Cl)cc1)c1ccc(NC(=O)N2Cc3ccccc3C2)cc1 [Example 177, N-(4-{[2-(4-chlorophenyl)ethyl]carbamoyl}phenyl)-1,3-dihydro-2H-isoindole-2-carboxamide]
IC50: 0.123 µM

O=C(NCCc1ccccn1)c1ccc(NC(=O)N2Cc3ccccc3C2)cc1 [Example 179, N-(4-{[2-(pyridin-2-yl)ethyl]carbamoyl}phenyl)-1,3-dihydro-2H-isoindole-2-carboxamide]
IC50: 0.128 µM

N#CCNC(=O)c1ccc(NC(=O)N2Cc3ccccc3C2)cc1 [Example 180, N-{4-[(cyanomethyl)carbamoyl]phenyl}-1,3-dihydro-2H-isoindole-2-carboxamide]
IC50: 0.131 µM

O=C(Nc1cccc(O)c1)c1ccc(NC(=O)N2Cc3ccccc3C2)cc1 [Example 182, N-{4-[(3-hydroxyphenyl)carbamoyl]phenyl}-1,3-dihydro-2H-isoindole-2-carboxamide]
IC50: 0.136 µM

CCCCN(C)C(=O)c1ccc(NC(=O)N2Cc3ccccc3C2)cc1 [Example 183, N-{4-[butyl(methyl)carbamoyl]phenyl}-1,3-dihydro-2H-isoindole-2-carboxamide]
IC50: 0.14 µM

CN(C)c1ccc(NC(=O)c2ccc(NC(=O)N3Cc4ccccc4C3)cc2)cc1 [Example 184, N-(4-{[4-(dimethylamino)phenyl]carbamoyl}phenyl)-1,3-dihydro-2H-isoindole-2-carboxamide]
IC50: 0.141 µM

O=C(Nc1ccc(C(=O)N2CCc3ccccc3C2)cc1)N1Cc2ccccc2C1 [Example 185, N-[4-(3,4-dihydroisoquinolin-2(1H)-ylcarbonyl)phenyl]-1,3-dihydro-2H-isoindole-2-carboxamide]
IC50: 0.142 µM

O=C(Nc1ccc(C(=O)N2Cc3ccccc3C2)cc1)N1Cc2ccccc2C1 [Example 186, N-[4-(1,3-dihydro-2H-isoindol-2-ylcarbonyl)phenyl]-1,3-dihydro-2H-isoindole-2-carboxamide]
IC50: 0.145 µM

O=C(Nc1ccc(C(=O)N2CCc3ccccc32)cc1)N1Cc2ccccc2C1 [Example 187, N-[4-(2,3-dihydro-1H-indol-1-ylcarbonyl)phenyl]-1,3-dihydro-2H-isoindole-2-carboxamide]
IC50: 0.146 µM

O=C(Nc1ccccc1)c1ccc(NC(=O)N2Cc3ccccc3C2)cc1 [Example 188, N-[4-(phenylcarbamoyl)phenyl]-1,3-dihydro-2H-isoindole-2-carboxamide]
IC50: 0.148 µM

O=C(Nc1ccc(F)cc1)c1ccc(NC(=O)N2Cc3ccccc3C2)cc1 [Example 189, N-{4-[(4-fluorophenyl)carbamoyl]phenyl}-1,3-dihydro-2H-isoindole-2-carboxamide]
IC50: 0.149 µM

CCN(CC)CCNC(=O)c1ccc(NC(=O)N2Cc3ccccc3C2)cc1 [Example 190, N-(4-{[2-(diethylamino)ethyl]carbamoyl}phenyl)-1,3-dihydro-2H-isoindole-2-carboxamide]
IC50: 0.15 µM

Nc1ccccc1NC(=O)c1ccc(NC(=O)N2Cc3ccccc3C2)cc1 [Example 192, N-{4-[(2-aminophenyl)carbamoyl]phenyl}-1,3-dihydro-2H-isoindole-2-carboxamide]
IC50: 0.155 µM

C[C@@H](O)CNC(=O)c1ccc(NC(=O)N2Cc3ccccc3C2)cc1 [Example 193, N-(4-{[(2R)-2-hydroxypropyl]carbamoyl}phenyl)-1,3-dihydro-2H-isoindole-2-carboxamide]
IC50: 0.164 µM

CC(C)(C)OC(=O)NC1CCN(C(=O)c2ccc(NC(=O)N3Cc4ccccc4C3)cc2)CC1 [Example 195, tert-butyl (1-{4-[(1,3-dihydro-2H-isoindol-2-ylcarbonyl)amino]benzoyl}piperidin-4-yl)carbamate]
IC50: 0.172 µM

O=C(NCCCN1CCOCC1)c1ccc(NC(=O)N2Cc3ccccc3C2)cc1 [Example 196, N-(4-{[3-(morpholin-4-yl)propyl]carbamoyl}phenyl)-1,3-dihydro-2H-isoindole-2-carboxamide]
IC50: 0.176 µM

O=C(Nc1ccc(C(=O)N2CCN(c3ncc(C(F)(F)F)cc3Cl)CC2)cc1)N1Cc2ccccc2C1 [Example 197, N-[4-({4-[3-chloro-5-(trifluoromethyl)pyridin-2-yl]piperazin-1-yl}carbonyl)phenyl]-1,3-dihydro-2H-isoindole-2-carboxamide]
IC50: 0.178 µM

O=C(Nc1ccc(C(=O)N2CCN(CC3CCCCC3)CC2)cc1)N1Cc2ccccc2C1 [Example 198]
IC50: 0.179 µM

O=C(Nc1cnn(Cc2cccc(Cl)c2)c1)c1ccc(NC(=O)N2Cc3ccccc3C2)cc1 [Example 199, N-(4-{[1-(3-chlorobenzyl)-1H-pyrazol-4-yl]carbamoyl}phenyl)-1,3-dihydro-2H-isoindole-2-carboxamide]
IC50: 0.179 µM

CCN(CC)C(=O)C1CCCN(C(=O)c2ccc(NC(=O)N3Cc4ccccc4C3)cc2)C1 (centres unmarked) [Example 200, N-(4-{[3-(diethylcarbamoyl)piperidin-1-yl]carbonyl}phenyl)-1,3-dihydro-2H-isoindole-2-carboxamide]
IC50: 0.186 µM

O=C(NCCCN1CCCCC1)c1ccc(NC(=O)N2Cc3ccccc3C2)cc1 [Example 201, N-(4-{[3-(piperidin-1-yl)propyl]carbamoyl}phenyl)-1,3-dihydro-2H-isoindole-2-carboxamide]
IC50: 0.189 µM

O=C(Nc1ccc(C(=O)N2CCN(CCO)CC2)cc1)N1Cc2ccccc2C1 [Example 202, N-(4-{[4-(2-hydroxyethyl)piperazin-1-yl]carbonyl}phenyl)-1,3-dihydro-2H-isoindole-2-carboxamide]
IC50: 0.192 µM

Cc1cccc(O)c1NC(=O)c1ccc(NC(=O)N2Cc3ccccc3C2)cc1 [Example 203, N-{4-[(2-hydroxy-6-methylphenyl)carbamoyl]phenyl}-1,3-dihydro-2H-isoindole-2-carboxamide]
IC50: 0.198 µM

CN(C)CCCCNC(=O)c1ccc(NC(=O)N2Cc3ccccc3C2)cc1 [Example 204, N-(4-{[4-(dimethylamino)butyl]carbamoyl}phenyl)-1,3-dihydro-2H-isoindole-2-carboxamide]
IC50: 0.2 µM

O=C(NCCCO)c1ccc(NC(=O)N2Cc3ccccc3C2)cc1 [Example 205, N-{4-[(3-hydroxypropyl)carbamoyl]phenyl}-1,3-dihydro-2H-isoindole-2-carboxamide]
IC50: 0.203 µM

O=C(Nc1ccc(C(=O)N2CCN(C3CCCCC3)CC2)cc1)N1Cc2ccccc2C1 [Example 206, N-{4-[(4-cyclohexylpiperazin-1-yl)carbonyl]phenyl}-1,3-dihydro-2H-isoindole-2-carboxamide]
IC50: 0.216 µM

O=C(Nc1ccc(C(=O)N2CCn3cnnc3C2)cc1)N1Cc2ccccc2C1 [Example 207]
IC50: 0.219 µM

CC(C)CCN(C)C(=O)c1ccc(NC(=O)N2Cc3ccccc3C2)cc1 [Example 208, N-{4-[methyl(3-methylbutyl)carbamoyl]phenyl}-1,3-dihydro-2H-isoindole-2-carboxamide]
IC50: 0.223 µM

CC[C@@H](CO)NC(=O)c1ccc(NC(=O)N2Cc3ccccc3C2)cc1 [Example 210, N-(4-{[(2S)-1-hydroxybutan-2-yl]carbamoyl}phenyl)-1,3-dihydro-2H-isoindole-2-carboxamide]
IC50: 0.235 µM

O=C(Nc1ccc(F)cn1)c1ccc(NC(=O)N2Cc3ccccc3C2)cc1 [Example 211, N-{4-[(5-fluoropyridin-2-yl)carbamoyl]phenyl}-1,3-dihydro-2H-isoindole-2-carboxamide]
IC50: 0.241 µM

CCCN(CC1CC1)C(=O)c1ccc(NC(=O)N2Cc3ccccc3C2)cc1 [Example 212, N-{4-[(cyclopropylmethyl)(propyl)carbamoyl]phenyl}-1,3-dihydro-2H-isoindole-2-carboxamide]
IC50: 0.252 µM

O=C(Nc1ccc(C(=O)N2CCc3c([nH]c4ccccc34)C2)cc1)N1Cc2ccccc2C1 [Example 214, N-[4-(1,3,4,9-tetrahydro-2H-beta-carbolin-2-ylcarbonyl)phenyl]-1,3-dihydro-2H-isoindole-2-carboxamide]
IC50: 0.265 µM

CC(C)(C)NC(=O)c1ccc(NC(=O)N2Cc3ccccc3C2)cc1 [Example 215, N-[4-(tert-butylcarbamoyl)phenyl]-1,3-dihydro-2H-isoindole-2-carboxamide]
IC50: 0.267 µM

O=C(Nc1ccc(C(=O)N2CCN(c3ccc(C(F)(F)F)cc3)CC2)cc1)N1Cc2ccccc2C1 [Example 216, N-[4-({4-[4-(trifluoromethyl)phenyl]piperazin-1-yl}carbonyl)phenyl]-1,3-dihydro-2H-isoindole-2-carboxamide]
IC50: 0.271 µM

O=C(Nc1ccc(C(=O)N2CCC(F)(F)C2)cc1)N1Cc2ccccc2C1 [Example 218, N-{4-[(3,3-difluoropyrrolidin-1-yl)carbonyl]phenyl}-1,3-dihydro-2H-isoindole-2-carboxamide]
IC50: 0.279 µM

CC1CCCCN1C(=O)c1ccc(NC(=O)N2Cc3ccccc3C2)cc1 (centres unmarked) [Example 219, N-{4-[(2-methylpiperidin-1-yl)carbonyl]phenyl}-1,3-dihydro-2H-isoindole-2-carboxamide]
IC50: 0.284 µM

O=C(N[C@H]1CCN(Cc2ccccc2)C1)c1ccc(NC(=O)N2Cc3ccccc3C2)cc1 [Example 220, N-(4-{[(3S)-1-benzylpyrrolidin-3-yl]carbamoyl}phenyl)-1,3-dihydro-2H-isoindole-2-carboxamide]
IC50: 0.293 µM

O=C(Nc1ccc(C(=O)N2CCC(O)CC2)cc1)N1Cc2ccccc2C1 [Example 221, N-{4-[(4-hydroxypiperidin-1-yl)carbonyl]phenyl}-1,3-dihydro-2H-isoindole-2-carboxamide]
IC50: 0.295 µM
